Experimental data as given in US20060153931A1, “Prevention of flap necrosis in plastic surgery” (priority 2001, published 2006).
Only a part of the results on these compounds is given; other tests are left out.

System: free tissue transfer of forearm tissues to the face
Assay: Patient with free tissue transfer, vasospasm after reattachment (Example I)
Assay type: in vivo, human
Settings: topical application, 50 mM, instead of the ethyl nitrite

sodium nitroprusside
vasodilation and blood flow after vasospasm: same result
